## Yeast mating assay B: variants of the scFv Ab-14

Target peptide (SARS-CoV-2 spike, HR2 region): PDVDLGDISGINAS

Parent: Ab-14, a human scFv built as VH, a (GGGGS)3 linker, VL. Only the CDRs of the heavy chain vary.
VH: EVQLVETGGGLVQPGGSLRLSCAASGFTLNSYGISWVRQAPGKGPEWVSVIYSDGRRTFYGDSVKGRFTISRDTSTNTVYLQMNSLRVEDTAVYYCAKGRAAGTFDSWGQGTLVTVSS
VL: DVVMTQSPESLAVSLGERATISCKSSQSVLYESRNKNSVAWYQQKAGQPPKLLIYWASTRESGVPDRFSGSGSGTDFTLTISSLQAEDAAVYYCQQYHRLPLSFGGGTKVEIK

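The parent was found by panning a naive human phage display library on the peptide. This is the validation round: designs drawn from the data on random variants, tested in the same kind of assay. Several design methods are mixed in this list. In AlphaSeq, yeast of one mating type display the scFv and yeast of the other type display the target. Pairs that bind mate more often; barcode pairs of the diploids are counted by sequencing. Each replicate has its own calibration line, from reference interactions of the BCL2 family. Each pool was mated in six replicate cultures.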

Each variant is given by its three heavy chain CDRs, as the data file delimits them; those of the parent are GFTLNSYGIS, VIYSDGRRTFYGDSVK, GRAAGTFDS.
Values are log10 of the apparent Kd in nM; lower means stronger binding.
"n.d." marks a missing value. The strain was present, yet no cells mated with the target were sequenced in that replicate, which points to weak or no binding.

{"CDR-H1": "GFDLNEYGIS", "CDR-H2": "VIYADGRRTFYADSVK", "CDR-H3": "GTNAGTFDI", "log10 Kd, replicates": "-0.18 / -0.47 / -0.63 / -0.77 / -0.58 / -0.57"}
{"CDR-H1": "GFTLNSYGIS", "CDR-H2": "VIYADGRRTFYGDDVK", "CDR-H3": "GEAAGTFDK", "log10 Kd, replicates": "0.77 / 0.57 / 0.16 / -0.50 / -0.05 / -0.22"}
{"CDR-H1": "GKDIEEYGIS", "CDR-H2": "VIYADGMRQAYAESVK", "CDR-H3": "GQVAGIGKF", "log10 Kd, replicates": "n.d. / n.d. / n.d. / n.d. / n.d. / n.d."}
{"CDR-H1": "GFDLNEYGIS", "CDR-H2": "VIYADGMRTAYADSVK", "CDR-H3": "GETAGTFDT", "log10 Kd, replicates": "-0.08 / -0.46 / -0.68 / -0.18 / -0.19 / -0.49"}
{"CDR-H1": "GFDLNEYGIS", "CDR-H2": "VIYADGRRTFYADSVK", "CDR-H3": "GKMAGTFDQ", "log10 Kd, replicates": "-0.78 / -0.65 / -0.34 / -0.82 / -0.55 / -0.70"}
{"CDR-H1": "GFDLNSYGIS", "CDR-H2": "VIYSDGRRTFYGDSVK", "CDR-H3": "GREAGTFDS", "log10 Kd, replicates": "0.26 / 0.31 / 0.25 / 0.12 / 0.04 / 0.18"}
{"CDR-H1": "GFGLNSYGIS", "CDR-H2": "VIYSDGRRTFYKDSVK", "CDR-H3": "GKTAGTFDS", "log10 Kd, replicates": "0.79 / -0.04 / 0.60 / 0.50 / 0.32 / 1.48"}
{"CDR-H1": "GFNLNSYGIS", "CDR-H2": "VIYSDGRRTFYIDSVK", "CDR-H3": "GQVAGTFDA", "log10 Kd, replicates": "0.93 / 0.63 / 0.38 / 0.93 / 0.85 / 0.87"}
{"CDR-H1": "GFDLDEYGIS", "CDR-H2": "VIYADGRRTAYADSVK", "CDR-H3": "GNQAGTFDI", "log10 Kd, replicates": "-0.69 / n.d. / -1.02 / -1.45 / -0.36 / -0.99"}
{"CDR-H1": "GFDINEYGIS", "CDR-H2": "VIYADGMRTAYADSVK", "CDR-H3": "GNNAGTFDV", "log10 Kd, replicates": "-0.09 / -0.69 / -0.66 / -0.56 / -0.51 / -0.26"}
{"CDR-H1": "GFTLNSYGIS", "CDR-H2": "VIYSDGRRLAYSDSVK", "CDR-H3": "GRQAGTFDS", "log10 Kd, replicates": "1.78 / 0.94 / -0.06 / 0.83 / 0.64 / 0.79"}
{"CDR-H1": "GRTLNSYGIS", "CDR-H2": "VIYSDGRRTFYGDSVK", "CDR-H3": "GRATGTFDS", "log10 Kd, replicates": "n.d. / n.d. / n.d. / n.d. / n.d. / n.d."}
{"CDR-H1": "GFTLNSYGIS", "CDR-H2": "VIYSDGRRTFYGDDVK", "CDR-H3": "GEWAGLFDS", "log10 Kd, replicates": "n.d. / n.d. / n.d. / n.d. / n.d. / n.d."}
{"CDR-H1": "GMDLNEYGIS", "CDR-H2": "VIYADGLRTAYIDAVK", "CDR-H3": "GKGSVIVGH", "log10 Kd, replicates": "n.d. / n.d. / n.d. / n.d. / n.d. / n.d."}
{"CDR-H1": "GFDLNEYGIS", "CDR-H2": "VIYADGMRTAYSDNVK", "CDR-H3": "GNVAGTFDI", "log10 Kd, replicates": "-0.48 / -0.79 / -0.66 / -0.92 / -0.69 / -0.49"}
{"CDR-H1": "GFNLNSYGIS", "CDR-H2": "VIYSDGRRTFYGDNVK", "CDR-H3": "GRQAGTFDT", "log10 Kd, replicates": "1.59 / 1.84 / 0.65 / 1.37 / 2.86 / 1.06"}
{"CDR-H1": "GFGLNSYGIS", "CDR-H2": "VIYSDGRRTFYVDSVK", "CDR-H3": "GQTAGTFDS", "log10 Kd, replicates": "n.d. / n.d. / n.d. / n.d. / n.d. / 0.34"}
{"CDR-H1": "GFDLNEYGIS", "CDR-H2": "VIYADGKRTFYADSVK", "CDR-H3": "GKNAGTFDQ", "log10 Kd, replicates": "-0.53 / -0.38 / -0.04 / -0.80 / -0.98 / -0.60"}
{"CDR-H1": "GFDLDEYGIS", "CDR-H2": "VIYADGMRKAYADSVK", "CDR-H3": "GEVAGTFDV", "log10 Kd, replicates": "0.55 / 1.39 / n.d. / 1.30 / 1.21 / n.d."}
{"CDR-H1": "GFDLNEYGIS", "CDR-H2": "VIYADGRRTAYADSVK", "CDR-H3": "GEYAGTFDI", "log10 Kd, replicates": "n.d. / n.d. / 0.58 / -0.66 / -0.28 / -0.02"}
{"CDR-H1": "GFDLDEYGIS", "CDR-H2": "VIYADGMRTFYADSVK", "CDR-H3": "GNIAGTFDV", "log10 Kd, replicates": "-0.86 / -1.04 / -0.46 / -1.16 / -0.73 / -0.86"}
{"CDR-H1": "GFDLNEYGIS", "CDR-H2": "VIYADGVRTYYADDVK", "CDR-H3": "GNVAGTFDL", "log10 Kd, replicates": "-0.28 / -0.71 / -0.54 / -0.79 / -0.40 / -0.14"}
{"CDR-H1": "GFELNTYGIS", "CDR-H2": "VIYSDGRRTAYGDSVK", "CDR-H3": "GRTAGTFDS", "log10 Kd, replicates": "0.81 / 0.77 / 1.42 / 1.82 / 1.24 / 1.03"}
{"CDR-H1": "GFNLDEYGIS", "CDR-H2": "VIYADGIREHYVDDVK", "CDR-H3": "GKHGGFKLD", "log10 Kd, replicates": "n.d. / n.d. / n.d. / n.d. / n.d. / n.d."}
{"CDR-H1": "GMDLEEYGIS", "CDR-H2": "VIYADGMRTYAVDSVK", "CDR-H3": "GDQGGTLDY", "log10 Kd, replicates": "n.d. / n.d. / n.d. / n.d. / n.d. / n.d."}

The opening 3 entries, copied out:

{"CDR-H1": "GFDLNEYGIS", "CDR-H2": "VIYADGRRTFYADSVK", "CDR-H3": "GTNAGTFDI", "log10 Kd, replicates": "-0.18 / -0.47 / -0.63 / -0.77 / -0.58 / -0.57"}
{"CDR-H1": "GFTLNSYGIS", "CDR-H2": "VIYADGRRTFYGDDVK", "CDR-H3": "GEAAGTFDK", "log10 Kd, replicates": "0.77 / 0.57 / 0.16 / -0.50 / -0.05 / -0.22"}
{"CDR-H1": "GKDIEEYGIS", "CDR-H2": "VIYADGMRQAYAESVK", "CDR-H3": "GQVAGIGKF", "log10 Kd, replicates": "n.d. / n.d. / n.d. / n.d. / n.d. / n.d."}

A sequence measured in both rounds can read differently, since the two assays cover different ranges.
Of ten entries with the parent sequence, four were seen in most replicates (averages 0.34 to 2.37), three in one and three in none, so single entries are noisy.
The authors' rule: three or more of the six replicates give a measured affinity, fewer mean a poor binder.
Nonspecific signal, from three strains lacking the peptide, appeared in 1% of pairings of all heavy chain designs, centred on 2.08 (5% of these signals below 0.84); values are not corrected for it.

Data: MIT Lincoln Laboratory AlphaSeq set, Li et al. 2023, doi:10.1038/s41467-023-39022-2, as distributed in FLAb.